Data reported in publication PMC8196714, “Design, Radiosynthesis and Preliminary Biological Evaluation in Mice of a Brain-Penetrant ^18F-Labelled σ2 Receptor Ligand” (International Journal of Molecular Sciences, 2021).

The chains behind the UniProt entries cited, without tags or fusion partners.
UniProt Q99720, whole entry: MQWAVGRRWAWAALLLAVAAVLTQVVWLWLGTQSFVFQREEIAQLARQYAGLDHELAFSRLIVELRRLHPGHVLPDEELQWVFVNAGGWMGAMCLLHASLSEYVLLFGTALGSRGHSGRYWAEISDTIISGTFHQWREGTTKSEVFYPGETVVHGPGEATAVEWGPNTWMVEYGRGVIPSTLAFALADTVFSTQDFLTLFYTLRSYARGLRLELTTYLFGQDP

Biological target: human σ1 receptors (Homo sapiens, UniProt Q99720)
Assay: σ1 receptor affinity, competitive binding with [3H]-(+)-pentazocine (HZDR Leipzig)
Details: determined at HZDR Leipzig
Description: To decide which of the nine compounds would be suitable for subsequent radiofluorination, we determined the affinity towards the σ1 receptor as the most relevant off-target protein. […] To finally select the best derivative for radiofluorination, we calculated the σ2:σ1 selectivity values and identified RM273 (41) as the most suitable one with a ratio of about 400.
Binding affinity experiments to assess the Ki values of test compounds towards rat σ2 receptors, human σ1 receptors, and rat VAChT were performed according to protocols previously published by our group. The same protocol was used to determine the KD and Bmax values of RM273 towards σ2 receptors expressed in F98 cells by homologous competition analyzing the displacement of [^18F]RM273 by RM273.

Ki: 13 nM
Compound: Fc1ccc(-n2cc(CCCCN3CCC4(CC3)OCc3ccccc34)c3ccccc32)cc1 [Siramesine, siramesine, reference compound]
